From ChEMBL document CHEMBL4477185, “Anacardic Acids from Knema hookeriana as Modulators of Bcl-xL/Bak and Mcl-1/Bid Interactions” (J Nat Prod, 2016) come the findings set out here.

Amino acid sequences for entries named in this document (tags omitted).
UniProt Q07820, whole entry: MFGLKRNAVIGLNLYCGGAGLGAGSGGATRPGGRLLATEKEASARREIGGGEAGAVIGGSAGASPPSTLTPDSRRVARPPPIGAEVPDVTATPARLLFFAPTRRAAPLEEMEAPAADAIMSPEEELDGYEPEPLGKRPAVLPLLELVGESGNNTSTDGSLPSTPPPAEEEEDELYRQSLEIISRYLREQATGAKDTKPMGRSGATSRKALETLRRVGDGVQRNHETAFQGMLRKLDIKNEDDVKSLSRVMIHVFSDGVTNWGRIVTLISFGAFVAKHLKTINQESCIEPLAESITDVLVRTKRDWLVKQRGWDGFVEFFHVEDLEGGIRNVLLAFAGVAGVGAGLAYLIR

This assay addresses Induced myeloid leukemia cell differentiation protein Mcl-1/BH3-interacting domain death agonist (Homo sapiens, UniProt Q07820). The experiment in a line: Inhibition of His-tagged Mcl-1/5-carboxyfluorescein-Bid (unknown origin) after 1 hr by fluorescence polarization assay. It counts as protein assay. The gist of the method: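 Fluorescence polarization competition: a small molecule competes with a fluorescent-tagged BH3 peptide (Bak for Bcl-xL, Bid for Mcl-1) for binding to the anti-apoptotic protein. Run in triplicate.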
A general note: Polarisation of emitted light reports the rotation of a fluorescent probe.

The IC50 is the concentration at which inhibition is half-maximal. Read a high IC50 as lower potency. `CN(C)CC[C@H](CSc1ccccc1)Nc1ccc(S(=O)(=O)NC(=O)c2ccc(N3CCN(Cc4ccccc4-c4ccc(Cl)cc4)CC3)cc2)cc1[N+](=O)[O-]` [ABT 737] yielded an IC50 of over 33 µM.
